According to PubChem BioAssay AID720707 (National Center for Advancing Translational Sciences (NCATS), 2013):
The entries are a selection whose mix differs from that of the whole data set. Active and inactive are the calls of the source. The call rests on the fitted dose curve; in most records, active means well fitted activation curve with a large enough effect; inconclusive means small, poorly fitted or top-dose-only effect; inactive means no such curve, though single readings can be large or run the other way.

By UniProt entry, the sequences of proteins in these tests, tags left out.
UniProt O95398, whole entry: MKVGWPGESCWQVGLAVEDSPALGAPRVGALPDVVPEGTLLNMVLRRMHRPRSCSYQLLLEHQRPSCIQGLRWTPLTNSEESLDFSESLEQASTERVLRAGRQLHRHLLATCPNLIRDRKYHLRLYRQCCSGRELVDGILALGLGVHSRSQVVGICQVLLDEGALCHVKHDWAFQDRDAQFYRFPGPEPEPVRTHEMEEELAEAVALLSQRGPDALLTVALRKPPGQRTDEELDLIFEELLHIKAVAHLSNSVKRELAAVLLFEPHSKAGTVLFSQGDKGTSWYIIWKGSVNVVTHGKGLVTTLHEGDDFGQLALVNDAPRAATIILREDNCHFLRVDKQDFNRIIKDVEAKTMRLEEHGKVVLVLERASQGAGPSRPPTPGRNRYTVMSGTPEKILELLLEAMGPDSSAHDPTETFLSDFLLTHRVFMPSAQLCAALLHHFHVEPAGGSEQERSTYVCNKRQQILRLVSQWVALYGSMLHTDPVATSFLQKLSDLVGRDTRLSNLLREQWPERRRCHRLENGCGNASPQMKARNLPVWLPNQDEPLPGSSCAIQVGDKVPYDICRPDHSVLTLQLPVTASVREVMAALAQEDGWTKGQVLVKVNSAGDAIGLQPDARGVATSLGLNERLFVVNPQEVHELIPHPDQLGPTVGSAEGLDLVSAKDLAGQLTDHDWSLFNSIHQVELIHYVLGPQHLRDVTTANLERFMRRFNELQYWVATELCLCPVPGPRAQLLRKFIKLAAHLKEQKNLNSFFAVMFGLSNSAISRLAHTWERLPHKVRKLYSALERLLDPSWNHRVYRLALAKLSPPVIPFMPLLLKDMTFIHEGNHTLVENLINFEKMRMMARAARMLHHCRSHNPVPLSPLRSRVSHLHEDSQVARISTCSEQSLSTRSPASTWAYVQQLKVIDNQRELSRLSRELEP

What follows are compounds tested against Rap guanine nucleotide exchange factor 3 (Homo sapiens) (UniProt O95398) (assay: qHTS for Agonist of cAMP-regulated guanine nucleotide exchange factor 3 (EPAC1): primary screen). Conditions: biochemical assay; at 154 µM (top of the series), 100% = response to 6.5 mM cAMP unless noted.
Outline: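 Nucleotide exchange assay: 100 nM EPAC1 with 250 nM Rap1B loaded with BODIPY-GDP and 50 uM GDP, room temperature. Fluorescence (480/540 nm) read every 5 min for 30 min; signal change normalized to 6.5 mM cAMP as full agonist.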
Further: nearly all actives have a fitted effect of over 60% in size.

Row | SMILES | activation
1 | c1ccc(CN2CCC(Nc3ccccc3)CC2)cc1 | inactive: 3.65%
2 | CC(C)(C)n1nnnc1C(c1cccc2ccccc12)N1CCC(n2c(=O)[nH]c3ccccc32)CC1 (stereo not given) | inactive: 9.76%
3 | CCC(c1nnnn1C1CCCCC1)N1CCC(n2c(=O)[nH]c3ccccc32)CC1 (stereo not given) | inactive: -4.79%
4 | CC(=O)N(c1ccccc1)C1CCNCC1 | inactive: 5.87%
5 | COc1cccc(C(c2nnnn2C2CCCCC2)N2CCC(n3c(=O)[nH]c4ccccc43)CC2)c1OC (stereo not given) | inactive: 2.71%
6 | O=c1[nH]c2ccccc2n1C1CCN(C(c2ccnc3ccccc23)c2nnnn2C2CCCCC2)CC1 (stereo not given) | inactive: 0.636%
7 | COc1cc(OC)cc(C(=O)NCC2(N3CCCCC3)CCCCC2)c1 | inactive: 7.39%
8 | Cc1ccc(Nc2c([N+](=O)[O-])cc([N+](=O)[O-])cc2[N+](=O)[O-])cc1 | inactive: -5.25%
9 | Fc1ccccc1NC1CCN(Cc2ccccc2)CC1 | inactive: -5.33%
10 | Cc1ccc(C(=O)NCC2(N3CCCCC3)CCCCC2)o1 | inactive: -11.3%
11 | Cc1ccc(NC2(C#N)CCN(Cc3ccccc3)CC2)cc1 | inactive: -4.95%
12 | CC(C)(C)n1nnnc1C(c1ccnc2ccccc12)N1CCC(n2c(=O)[nH]c3ccccc32)CC1 (stereo not given) | inactive: 7.03%
13 | COc1ccc(C(c2nnnn2C2CCCCC2)N2CCC(n3c(=O)[nH]c4ccccc43)CC2)cc1 (stereo not given) | inactive: -13.2%
14 | CCN1CCC(Nc2cccc(F)c2)CC1 | inactive: 2.56%
15 | Cc1ccccc1NC1(C#N)CCN(Cc2ccccc2)CC1 | inactive: 4.01%
16 | Cn1c(=O)[nH]cc(N(CCCl)CCCl)c1=O | inactive: 1.3%
17 | CN(C)c1ccc(C(=O)NCC2(N3CCCCC3)CCCCC2)cc1 | inactive: 1.97%
18 | O=C(NCC1(N2CCCCC2)CCCCC1)c1ccco1 | inactive: -9.11%
19 | CN1CCC(Nc2ccc(F)c(Cl)c2)CC1 | inactive: 2.01%
20 | CCOc1ncccc1C(=O)NCC1(N2CCOCC2)CCCCC1 | inactive: 8.17%
21 | NN(c1ccccc1)C1CCN(CCc2ccccc2)CC1 | inactive: -5.97%
22 | O=C(O)C1(Nc2ccccc2)CCN(Cc2ccccc2)CC1 | inactive: 0.924%
23 | CC(C)(C)OC(=O)N1CCC(Nc2ccccc2)CC1 | inactive: 1.6%
24 | CCCOc1ccc(C(=O)NCC2(N(C)C)CCCCC2)cc1 | inactive: -4.86%
25 | O=c1[nH]c2ccccc2n1C1CCN(C(c2cc3ccccc3o2)c2nnnn2C2CCCC2)CC1 (stereo not given) | inactive: -2.53%
26 | COc1cccc(C(=O)N(c2cc(C)cc(C)c2)C2CCN(C(=O)OC(C)(C)C)CC2)c1 | inactive: -4.26%
27 | COc1cc(OC)cc(C(=O)NCC2(N3CCOCC3)CCCCC2)c1 | inactive: -2.11%
28 | COc1cccc(C(c2nnnn2C2CCCC2)N2CCC(n3c(=O)[nH]c4ccccc43)CC2)c1OC (stereo not given) | inactive: 0.527%
29 | CCC(CO)(C(=O)OC1CN2CCC1CC2)c1ccccc1 (stereo not given) | inactive: -1.54%
30 | CN1CCC(Nc2ccc(Cl)cc2)CC1 | inactive: 6.83%
